Assay results published in US7432398B2, “Inorganic acid salts of sibutramine” (CJ Corporation, priority 2005, dated 2008).

Assay: Evaluation of solubility in solutions having various pH values
Conditions: for solubility compared to sibutramine hydrochloride: distilled water and buffer solutions at various pH values
[1] = DW (distilled water), dissolved at 37° C.

sibutramine hydrogen sulfate
solubility (mg of sibutramine dissolved per ml of solution) [1]: 285 mg/mL | solubility compared to sibutramine hydrochloride: greatly enhanced solubility | solubility (mg of sibutramine dissolved per ml of solution) (pH 1.2, dissolved at 37° C.): 333 mg/mL | solubility (mg of sibutramine dissolved per ml of solution) (pH 4.0, dissolved at 37° C.): 333 mg/mL | solubility (mg of sibutramine dissolved per ml of solution) (pH 5.3, dissolved at 37° C.): 400 mg/mL | solubility (mg of sibutramine dissolved per ml of solution) (pH 6.8, dissolved at 37° C.): 370 mg/mL | solubility (mg of sibutramine dissolved per ml of solution) (pH 7.4, dissolved at 37° C.): 400 mg/mL

sibutramine phosphate monohydrate [Sibutramine phosphate hydrate]
solubility (mg of sibutramine dissolved per ml of solution) [1]: 38.86 mg/mL | solubility compared to sibutramine hydrochloride: greatly enhanced solubility | solubility (mg of sibutramine dissolved per ml of solution) (pH 1.2, dissolved at 37° C.): 23.92 mg/mL | solubility (mg of sibutramine dissolved per ml of solution) (pH 4.0, dissolved at 37° C.): 50 mg/mL | solubility (mg of sibutramine dissolved per ml of solution) (pH 5.3, dissolved at 37° C.): 50 mg/mL | solubility (mg of sibutramine dissolved per ml of solution) (pH 6.8, dissolved at 37° C.): 24.55 mg/mL | solubility (mg of sibutramine dissolved per ml of solution) (pH 7.4, dissolved at 37° C.): 50 mg/mL
